activation, negative = inhibition data for 79 compounds are collected here from PubChem BioAssay AID485297 (National Center for Advancing Translational Sciences (NCATS), 2010).

SMILES strings stand for the structures. The list shows a part of the results, in another mix than the full data. Results filed as inconclusive are left out. Active and inactive are the calls of the source. Calls come from the whole dose curve; as a rule, active = well fitted activation curve with a large enough effect; inconclusive = small, poorly fitted or top-dose-only effect; inactive = no such curve, though single readings can be large or run the other way.

A short description of the experiment: qHTS Assay for Rab9 Promoter Activators. Note: % of control where 0% means no effect; nearly all actives have a fitted effect of over 60% in size. Particulars: Huh7 Rab9 promoter-luciferase reporter, luminescence, 24 h; at 9.22 µM (top of the series).
With `CP(=O)(Nc1ccccc1)Oc1ccc(F)cc1` (centres undefined), the activation, negative = inhibition was inactive: -1.74%. The figure for `CCCCCOc1ccc(NP(C)(=O)Oc2ccc(Cl)cc2Cl)cc1` (centres undefined) is inactive: 9.02%; for `CCN(CC)CCCOC(=O)C(O)(c1ccccc1)C1CCCCC1` (centres undefined) it is inactive: -13.5%. With `CCOC(=O)c1ccc(NP(C)(=O)Oc2ccc(F)cc2)cc1` (centres undefined), the activation, negative = inhibition is inactive: -12%.

On to `COc1ccc(OP(C)(=O)Nc2ccc(SC(F)(F)F)cc2)cc1` (centres undefined), for which the activation, negative = inhibition was inactive: -0.733%. On to `O=C(OCCN1CCN(CCOCc2ccccc2)CC1)C(O)(c1ccccc1)c1ccccc1`, for which the activation, negative = inhibition was inactive: 0.227%. Turning to `CP(=O)(Nc1ccccc1F)Oc1ccccc1` (centres undefined), the activation, negative = inhibition was inactive: 6.98%. The figure for `CC(C)c1ccc(OP(C)(=O)Nc2ccc(SC(F)(F)F)cc2)cc1` (centres undefined) is inactive: -1.49%; for `Cc1ccccc1NP(C)(=O)Nc1ccccc1C` it is inactive: -10.1%; for `CP(=O)(Nc1ccc2c(c1)OCCO2)Oc1ccccc1` (centres undefined) it is inactive: -3.96%. As to `CCOP(C)(=S)SCC(=O)NC(C)(CC)C(=O)O` (centres undefined), the activation, negative = inhibition is inactive: -2.05%. Turning to `CP(=O)(Nc1ccc(SC(F)(F)F)cc1)Oc1ccc(F)cc1` (centres undefined), the activation, negative = inhibition was inactive: 0.216%. Regarding `O=[N+]([O-])c1ccc(OP2(=O)COCCO2)cc1` (centres undefined), the activation, negative = inhibition is inactive: 0.414%. As for `Cc1cc(-c2cccc3ccccc23)c(C)cn1.O=[N+]([O-])c1cc([N+](=O)[O-])c(O)c([N+](=O)[O-])c1`, the activation, negative = inhibition is inactive: -8.05%. With `CN(C)CCOC(=O)C(O)(c1ccccc1)C1CCCCC1` (centres undefined), the activation, negative = inhibition was inactive: 0.702%. In the case of `COc1ccc(NP(C)(=O)Oc2ccccc2OC)cc1` (centres undefined), the activation, negative = inhibition was inactive: 3.18%. For the compound `COc1ccc(OP(C)(=O)Nc2cccc(Br)c2)cc1` (centres undefined), the activation, negative = inhibition is inactive: 11.5%. The figure for `CCOC(=O)c1ccc(NP(C)(=O)Oc2ccc(Cl)cc2)cc1` (centres undefined) is inactive: -5.13%. Take `CP(=O)(OC12CC3CC(CC(C3)C1)C2)OC12CC3CC(CC(C3)C1)C2`: the activation, negative = inhibition is inactive: -3.4%.

Regarding `CN(C)C(=O)c1c([N+](=O)[O-])cc([N+](=O)[O-])cc1[N+](=O)[O-]`, the activation, negative = inhibition is inactive: 18.9%. As to `CC(C)(C)c1ccc(OP(C)(=O)O)cc1`, the activation, negative = inhibition was inactive: 17.8%. Consider `COc1ccccc1OP(C)(=O)Nc1ccccc1Br` (centres undefined), for which the activation, negative = inhibition was inactive: -0.361%. As to `CP(=O)(Nc1ccc(Cl)cc1)Oc1ccc(F)cc1` (centres undefined), the activation, negative = inhibition is inactive: -0.112%.

For `COc1ccccc1OP(C)(=O)Nc1c(C)n(C)n(-c2ccccc2)c1=O` (centres undefined), the activation, negative = inhibition is inactive: 2.39%.

On to `O=C(OCCCN1CCCC1)C(O)(c1ccccc1)C1CCCCC1` (centres undefined), for which the activation, negative = inhibition is inactive: -5.29%.

In the case of `CP(=O)(Oc1ccccc1)N1CCOC1=O` (centres undefined), the activation, negative = inhibition is inactive: -6.64%. Turning to `CCc1ccc(OP(C)(=O)Nc2cccnc2)cc1` (centres undefined), the activation, negative = inhibition is inactive: 0.152%. Regarding `CCN(CC)CC(O)COC(=O)C(O)(c1ccccc1)C1CCCCC1` (centres undefined), the activation, negative = inhibition was inactive: -4.7%. Regarding `COc1ccc(OP(C)(=O)Nc2ccc(Br)cc2)cc1` (centres undefined), the activation, negative = inhibition is inactive: -5.74%.

Consider `CP(=O)(Nc1ccccn1)Oc1ccccc1` (centres undefined), for which the activation, negative = inhibition was inactive: -3.63%.

With `COc1ccccc1OP(C)(=O)Nc1ccc(C)cc1C` (centres undefined), the activation, negative = inhibition is inactive: -0.0758%.

As to `CCc1ccc(OP(C)(=O)O)cc1`, the activation, negative = inhibition is inactive: -3.58%.

For `O=[N+]([O-])c1cc([N+](=O)[O-])c(Nc2ccccn2)c([N+](=O)[O-])c1`, the activation, negative = inhibition was inactive: -47.3%. With `Cc1c(NP(C)(=O)Oc2ccc(C(C)C)cc2)c(=O)n(-c2ccccc2)n1C` (centres undefined), the activation, negative = inhibition was inactive: 0.82%.

With `COc1ccc(OP(C)(=O)Nc2ccccn2)cc1` (centres undefined), the activation, negative = inhibition is inactive: -4.16%. Consider `CN(C)CCOC(=O)C(O)(c1ccccc1)C1CCCC1` (centres undefined), for which the activation, negative = inhibition was inactive: -3.27%. Regarding `COc1ccccc1OP(C)(=O)Nc1ccc(Br)cc1` (centres undefined), the activation, negative = inhibition was inactive: -2.49%. Regarding `CP(=O)(OCCOc1ccccc1)OCCOc1ccccc1`, the activation, negative = inhibition is inactive: -25.4%. Take `CP(=O)(Nc1ccc(Cl)cc1Cl)Oc1ccccc1` (centres undefined): the activation, negative = inhibition was inactive: -1.03%. As for `COc1ccccc1OP(C)(=O)Nc1ccc(C)c(C)c1` (centres undefined), the activation, negative = inhibition was inactive: 1.11%.

`COc1ccc(OP(C)(=O)Nc2ccccc2Br)cc1` (centres undefined): the activation, negative = inhibition was inactive: -2.08%. With `Cc1cc(C)cc(OP(C)(=O)Nc2cccc(C(F)(F)F)c2)c1` (centres undefined), the activation, negative = inhibition was inactive: -4.69%. Turning to `Cc1cc(C)cc(OP(C)(N)=O)c1` (centres undefined), the activation, negative = inhibition was inactive: 3.89%. In the case of `COc1ccccc1OP(C)(=O)Nc1cc(Cl)ccc1C` (centres undefined), the activation, negative = inhibition is inactive: -5.89%. The figure for `COc1ccc(OP(C)(=O)Nc2cccc(F)c2)cc1` (centres undefined) is inactive: 3.26%; for `COc1ccccc1OP(C)(=O)Nc1ccc(C)cc1` (centres undefined) it is inactive: -2.99%; for `Cc1ccc(NP(C)(=O)Oc2ccccc2)c(C)c1` (centres undefined) it is inactive: 0.07%. The figure for `CCOC(=O)c1ccc(NP(C)(=O)Oc2ccccc2)cc1` (centres undefined) is inactive: -0.461%; for `O=[N+]([O-])c1ccc2c(c1)C=Nc1ccccc1O2` it is inactive: -5.53%.

Consider `CC(C)(C)c1ccc(OP(C)(=O)Nc2ccc(SC(F)(F)F)cc2)cc1` (centres undefined), for which the activation, negative = inhibition is inactive: -5.06%. In the case of `Cc1cccc(C)c1OP(C)(N)=O` (centres undefined), the activation, negative = inhibition was inactive: -0.893%.

As to `O=[N+]([O-])c1cc([N+](=O)[O-])c(Nc2cccnc2)c([N+](=O)[O-])c1`, the activation, negative = inhibition was inactive: -2.67%. In the case of `CCN(CC)CCCOC(=O)C(O)(c1ccccc1)c1ccccc1`, the activation, negative = inhibition is inactive: 3.7%. `CCOC(=O)c1ccc(NP(C)(=O)Oc2ccc(OC)cc2)cc1` (centres undefined): the activation, negative = inhibition is inactive: -0.869%. With `CCOP(C)(=S)SCC(=O)NC(C)C(=O)O` (centres undefined), the activation, negative = inhibition was inactive: -5.31%. The figure for `CCc1ccc(OP(C)(=O)N2CCN(c3ccc([N+](=O)[O-])cc3)CC2)cc1` (centres undefined) is inactive: 0.342%. Regarding `CP(=O)(NC(=O)Nc1ccccc1)Oc1ccccc1` (centres undefined), the activation, negative = inhibition is inactive: -0.842%.

For the compound `Cc1cc(C)cc(OP(C)(=O)Nc2ccc(SC(F)(F)F)cc2)c1` (centres undefined), the activation, negative = inhibition was inactive: -1.8%. In the case of `Cc1cccc(C)c1OP(C)(=O)Nc1ccc(SC(F)(F)F)cc1` (centres undefined), the activation, negative = inhibition was inactive: 0.169%.

With `CP(=O)(Nc1ccc(SC(F)(F)F)cc1)Oc1ccc(Cl)cc1` (centres undefined), the activation, negative = inhibition was inactive: -0.165%. The figure for `CP(=O)(Oc1ccccc1)OC(c1ccccc1)C(F)(F)F` (centres undefined) is inactive: 3.91%; for `CP(=O)(Nc1ccccc1Br)Oc1ccccc1` (centres undefined) it is inactive: 1.2%. The figure for `COc1ccccc1OP(C)(=O)Nc1ccccc1` (centres undefined) is inactive: -9.25%.

For `CP(=S)(Nn1cnnc1)Oc1ccccc1` (centres undefined), the activation, negative = inhibition is inactive: -0.641%.

On to `CP(=O)(Nc1ccc(SC(F)(F)F)cc1)Oc1ccccc1` (centres undefined), for which the activation, negative = inhibition is inactive: -1.73%. Then `CCCOc1ccc(NP(C)(=O)Oc2ccc(Cl)cc2)cc1` (centres undefined), with inactive: -8.1%; and `COc1ccccc1OP(C)(=O)Nc1c(C)cccc1C` (centres undefined), with inactive: -1.48%; and `CN1CCCCC1COC(=O)C1(O)c2ccccc2CCc2ccccc21` (centres undefined), with inactive: 6.38%. On to `O=[N+]([O-])c1cc([N+](=O)[O-])c(Nc2nnnn2CCO)c([N+](=O)[O-])c1`, for which the activation, negative = inhibition was inactive: -8.07%. In the case of `CC1=C2N=C(C=C3N=C(C(C)=C4[N-][C@@](C)([C@@H]5N=C1[C@](C)(CCC(=O)NC[C@@H](C)OP(=O)([O-])O[C@H]1[C@@H](O)[C@@H](n6cnc7cc(C)c(C)cc76)O[C@@H]1CO)[C@H]5CC(N)=O)[C@@](C)(CC(N)=O)[C@@H]4CCC(N)=O)[C@@](C)(CC(N)=O)[C@@H]3CCC(N)=O)C(C)(C)[C@@H]2CCC(N)=O.[C-]#N.[Co+3]`, the activation, negative = inhibition was inactive: -18%. As for `Cc1nc2ccc3ccccc3c2s1.O=[N+]([O-])c1cc([N+](=O)[O-])c(O)c([N+](=O)[O-])c1`, the activation, negative = inhibition was inactive: 2.78%.

For the compound `O=[N+]([O-])c1cc([N+](=O)[O-])c(-n2nnc3ccccc32)c([N+](=O)[O-])c1`, the activation, negative = inhibition is inactive: 1.91%.

`Cc1ccc(C)c(NP(C)(=O)Oc2ccccc2)c1` (centres undefined): the activation, negative = inhibition is inactive: -2.11%. With `CP(=O)(Nc1cccc(Br)c1)Oc1ccccc1` (centres undefined), the activation, negative = inhibition was inactive: 2.7%.

As to `Cc1cc(C)cc(OP(C)(=O)Nc2ccccn2)c1` (centres undefined), the activation, negative = inhibition was inactive: 0.476%. For the compound `CCOC(=O)c1ccc(NP(C)(=O)Oc2cc(C)cc(C)c2)cc1` (centres undefined), the activation, negative = inhibition was inactive: -0.387%. The figure for `Cc1cc(C)cc(OP(C)(=O)Nc2ccc(C)cc2C)c1` (centres undefined) is inactive: -3.97%. In the case of `COc1ccccc1OP(C)(=O)Nc1cccc(Br)c1` (centres undefined), the activation, negative = inhibition is inactive: -2.47%. With `CC1=NCCc2c1[nH]c1ccccc21.O=[N+]([O-])c1cc([N+](=O)[O-])c(O)c([N+](=O)[O-])c1`, the activation, negative = inhibition is inactive: -0.719%.
